Assays:
Acinetobacter baumannii = settings: ATCC 19606 = CIP 70.34 = JCM 6841
Pseudomonas aeruginosa = settings: CIP 5933
Klebsiella pneumoniae = settings: ATCC 35657
Serratia marcescens = settings: CIP 103551
Enterobacter cloacae = settings: ATCC 13047

Measured: MIC

GENTAMICIN
0.5 µg/mL: all assays above
